#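 Five compound concentrations were applied to cells in 96-well plates for 48 hours; endpoints were derived by simple linear interpolation of the resulting dose-response curve. GI50 = concentration required for 50% inhibition of growth. The concentration for full growth arrest is given as TGI.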
# What was measured:
# Assay in all cases: NCI tumour cell line growth inhibition, 48 h
# SK-OV-3 ovarian = test system: SK-OV-3 ovarian
# LOX IMVI melanoma = test system: LOX IMVI melanoma
# MOLT-4 leukemia = test system: MOLT-4 leukemia
# SK-MEL-2 melanoma = test system: SK-MEL-2 melanoma
# SN12C renal = test system: SN12C renal
# NCI-H226 lung = test system: NCI-H226 lung
# UO-31 renal = test system: UO-31 renal
# OVCAR-4 ovarian = test system: OVCAR-4 ovarian
# NCI-H23 lung = test system: NCI-H23 lung
# UACC-257 melanoma = test system: UACC-257 melanoma
# SK-MEL-28 melanoma = test system: SK-MEL-28 melanoma
# MCF7 breast = test system: MCF7 breast
# NCI-H522 lung = test system: NCI-H522 lung
# KM20L2 colon = test system: KM20L2 colon
# DLD-1 colon = test system: DLD-1 colon
# MALME-3M melanoma = test system: MALME-3M melanoma
# HOP-62 NSCLC = test system: HOP-62 NSCLC
# SNB-78 CNS = test system: SNB-78 CNS
# NCI-H460 lung = test system: NCI-H460 lung
# P388/ADR leukemia = test system: P388/ADR leukemia
# HOP-92 NSCLC = test system: HOP-92 NSCLC
# K-562 leukemia = test system: K-562 leukemia
# U251 CNS = test system: U251 CNS
# RXF 393 renal = test system: RXF 393 renal
# KM12 colon = test system: KM12 colon
# HL-60(TB) leukemia = test system: HL-60(TB) leukemia
# EKVX NSCLC = test system: EKVX NSCLC
# SF-268 CNS = test system: SF-268 CNS
# HOP-18 NSCLC = test system: HOP-18 NSCLC
# CCRF-CEM leukemia = test system: CCRF-CEM leukemia
# HT29 colon = test system: HT29 colon
# DMS 114 small cell lung = test system: DMS 114 small cell lung
# SNB-75 CNS = test system: SNB-75 CNS
# HCC-2998 colon = test system: HCC-2998 colon
# P388 leukemia = test system: P388 leukemia
# SF-295 CNS = test system: SF-295 CNS
# XF 498 CNS = test system: XF 498 CNS
# COLO 205 colon = test system: COLO 205 colon
# DMS 273 small cell lung = test system: DMS 273 small cell lung
# NCI-H322M lung = test system: NCI-H322M lung
# OVCAR-5 ovarian = test system: OVCAR-5 ovarian
# SNB-19 CNS = test system: SNB-19 CNS
# UACC-62 melanoma = test system: UACC-62 melanoma
# M19-MEL melanoma = test system: M19-MEL melanoma
# A549 NSCLC = test system: A549 NSCLC
# OVCAR-3 ovarian = test system: OVCAR-3 ovarian
# A498 renal = test system: A498 renal
# SK-MEL-5 melanoma = test system: SK-MEL-5 melanoma
# RPMI-8226 leukemia = test system: RPMI-8226 leukemia
# SF-539 CNS = test system: SF-539 CNS
# SW-620 colon = test system: SW-620 colon
# OVCAR-8 ovarian = test system: OVCAR-8 ovarian
# HCT-15 colon = test system: HCT-15 colon
# NCI/ADR-RES ovarian = test system: NCI/ADR-RES ovarian
# HCT-116 colon = test system: HCT-116 colon
# CAKI-1 renal = test system: CAKI-1 renal
# SN12K1 renal = test system: SN12K1 renal
smiles,measurement,setting,value
CC(O)CCOP(=O)(N(CCCl)CCCl)N1CC1 (centres undefined),GI50,SK-OV-3 ovarian,> 100 µM
same,TGI,SK-OV-3 ovarian,> 100 µM
same,GI50,LOX IMVI melanoma,> 100 µM
same,TGI,LOX IMVI melanoma,> 100 µM
same,GI50,MOLT-4 leukemia,84.8 µM
same,TGI,MOLT-4 leukemia,> 100 µM
same,GI50,SK-MEL-2 melanoma,> 100 µM
same,TGI,SK-MEL-2 melanoma,> 100 µM
same,GI50,SN12C renal,> 100 µM
same,TGI,SN12C renal,> 100 µM
same,GI50,NCI-H226 lung,> 100 µM
same,TGI,NCI-H226 lung,> 100 µM
same,GI50,UO-31 renal,> 100 µM
same,TGI,UO-31 renal,> 100 µM
same,GI50,OVCAR-4 ovarian,> 100 µM
same,TGI,OVCAR-4 ovarian,> 100 µM
same,GI50,NCI-H23 lung,> 100 µM
same,TGI,NCI-H23 lung,> 100 µM
same,GI50,UACC-257 melanoma,> 100 µM
same,TGI,UACC-257 melanoma,> 100 µM
same,GI50,SK-MEL-28 melanoma,> 100 µM
same,TGI,SK-MEL-28 melanoma,> 100 µM
same,GI50,MCF7 breast,> 100 µM
same,TGI,MCF7 breast,> 100 µM
same,GI50,NCI-H522 lung,> 100 µM
same,TGI,NCI-H522 lung,> 100 µM
same,GI50,KM20L2 colon,> 100 µM
same,TGI,KM20L2 colon,> 100 µM
same,GI50,DLD-1 colon,> 100 µM
same,TGI,DLD-1 colon,> 100 µM
same,GI50,MALME-3M melanoma,> 100 µM
same,TGI,MALME-3M melanoma,> 100 µM
same,GI50,HOP-62 NSCLC,> 100 µM
same,TGI,HOP-62 NSCLC,> 100 µM
same,GI50,SNB-78 CNS,> 100 µM
same,TGI,SNB-78 CNS,> 100 µM
same,GI50,NCI-H460 lung,95 µM
same,TGI,NCI-H460 lung,> 100 µM
same,GI50,P388/ADR leukemia,> 100 µM
same,TGI,P388/ADR leukemia,> 100 µM
same,GI50,HOP-92 NSCLC,> 100 µM
same,TGI,HOP-92 NSCLC,> 100 µM
same,GI50,K-562 leukemia,> 100 µM
same,TGI,K-562 leukemia,> 100 µM
same,GI50,U251 CNS,> 100 µM
same,TGI,U251 CNS,> 100 µM
same,GI50,RXF 393 renal,> 100 µM
same,TGI,RXF 393 renal,> 100 µM
same,GI50,KM12 colon,> 100 µM
same,TGI,KM12 colon,> 100 µM
same,GI50,HL-60(TB) leukemia,> 100 µM
same,TGI,HL-60(TB) leukemia,> 100 µM
same,GI50,EKVX NSCLC,> 100 µM
same,TGI,EKVX NSCLC,> 100 µM
same,GI50,SF-268 CNS,> 100 µM
same,TGI,SF-268 CNS,> 100 µM
same,GI50,HOP-18 NSCLC,> 100 µM
same,TGI,HOP-18 NSCLC,> 100 µM
same,GI50,CCRF-CEM leukemia,0.863 µM
same,TGI,CCRF-CEM leukemia,> 100 µM
same,GI50,HT29 colon,> 100 µM
same,TGI,HT29 colon,> 100 µM
same,GI50,DMS 114 small cell lung,> 100 µM
same,TGI,DMS 114 small cell lung,> 100 µM
same,GI50,SNB-75 CNS,74.1 µM
same,TGI,SNB-75 CNS,> 100 µM
same,GI50,HCC-2998 colon,> 100 µM
same,TGI,HCC-2998 colon,> 100 µM
same,GI50,P388 leukemia,> 100 µM
same,TGI,P388 leukemia,> 100 µM
same,GI50,SF-295 CNS,> 100 µM
same,TGI,SF-295 CNS,> 100 µM
same,GI50,XF 498 CNS,81.2 µM
same,TGI,XF 498 CNS,> 100 µM
same,GI50,COLO 205 colon,31.6 µM
same,TGI,COLO 205 colon,31.6 µM
same,GI50,DMS 273 small cell lung,> 100 µM
same,TGI,DMS 273 small cell lung,> 100 µM
same,GI50,NCI-H322M lung,> 100 µM
same,TGI,NCI-H322M lung,> 100 µM
same,GI50,OVCAR-5 ovarian,> 100 µM
same,TGI,OVCAR-5 ovarian,> 100 µM
same,GI50,SNB-19 CNS,> 100 µM
same,TGI,SNB-19 CNS,> 100 µM
same,GI50,UACC-62 melanoma,> 100 µM
same,TGI,UACC-62 melanoma,> 100 µM
same,GI50,M19-MEL melanoma,> 100 µM
same,TGI,M19-MEL melanoma,> 100 µM
same,GI50,A549 NSCLC,> 100 µM
same,TGI,A549 NSCLC,> 100 µM
same,GI50,OVCAR-3 ovarian,> 100 µM
same,TGI,OVCAR-3 ovarian,> 100 µM
same,GI50,A498 renal,> 100 µM
same,TGI,A498 renal,> 100 µM
same,GI50,SK-MEL-5 melanoma,> 100 µM
same,TGI,SK-MEL-5 melanoma,> 100 µM
same,GI50,RPMI-8226 leukemia,> 100 µM
same,TGI,RPMI-8226 leukemia,> 100 µM
same,GI50,SF-539 CNS,> 100 µM
same,TGI,SF-539 CNS,> 100 µM
same,GI50,SW-620 colon,> 100 µM
same,TGI,SW-620 colon,> 100 µM
same,GI50,OVCAR-8 ovarian,> 100 µM
same,TGI,OVCAR-8 ovarian,> 100 µM
same,GI50,HCT-15 colon,> 100 µM
same,TGI,HCT-15 colon,> 100 µM
same,GI50,NCI/ADR-RES ovarian,> 100 µM
same,TGI,NCI/ADR-RES ovarian,> 100 µM
same,GI50,HCT-116 colon,> 100 µM
same,TGI,HCT-116 colon,> 100 µM
same,GI50,CAKI-1 renal,> 100 µM
same,TGI,CAKI-1 renal,> 100 µM
same,GI50,SN12K1 renal,> 100 µM
same,TGI,SN12K1 renal,> 100 µM
